Laboratory results taken from US20060003399.

Experiments:
[1] = test system: Full length human N-WASP, TAP-tagged at the C-terminus (Myc-N-WASP-TAP)
[2] = test system: Full length human WASP, TAP-tagged at the C-terminus (Myc-WASP-TAP)

Which Barbed ends [1] does the source give for GST-tev-Rac1 here?
The Barbed ends was 1.9 nM.

What about the Barbed ends % of max. [1] of the same substance?
Its Barbed ends % of max. is 28%.

And the Barbed ends [2]?
Its Barbed ends is 1.4 nM.

What about the Barbed ends % of max. [2] of the same substance?
Its Barbed ends % of max. is 12%.
